Measurements reported in ChEMBL document CHEMBL2311524, “Discovery of a potent and selective free fatty acid receptor 1 agonist with low lipophilicity and high oral bioavailability” (J Med Chem, 2013).

The chains behind the UniProt entries cited, without tags or fusion partners.
UniProt O14842, whole entry: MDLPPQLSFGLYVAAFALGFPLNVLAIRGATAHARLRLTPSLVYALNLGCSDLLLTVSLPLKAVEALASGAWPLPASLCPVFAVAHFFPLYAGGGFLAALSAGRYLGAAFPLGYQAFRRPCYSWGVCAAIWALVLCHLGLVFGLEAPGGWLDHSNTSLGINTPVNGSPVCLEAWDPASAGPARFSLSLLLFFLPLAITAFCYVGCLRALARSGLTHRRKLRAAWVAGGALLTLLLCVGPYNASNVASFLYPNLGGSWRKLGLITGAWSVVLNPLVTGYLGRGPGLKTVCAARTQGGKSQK

Molecular target: Free fatty acid receptor 1 (Homo sapiens, UniProt O14842)
Assay: Agonist activity at human FFA1 assessed as calcium mobilization measured for 50 intervals of 0.4 secs by microplate reader analysis relative to TUG-20
Type: functional

Compound N#CCc1ccccc1C#Cc1ccc(CCC(=O)O)cc1 has an Activity of 103%.
